Results as given in ChEMBL document CHEMBL1136273, “Design and synthesis of factor Xa inhibitors and their prodrugs” (Bioorg Med Chem Lett, 2003).

By UniProt entry, the sequences of proteins in these tests, tags left out. Residues count along the entry.
UniProt P00742, 41-179 limits assumed: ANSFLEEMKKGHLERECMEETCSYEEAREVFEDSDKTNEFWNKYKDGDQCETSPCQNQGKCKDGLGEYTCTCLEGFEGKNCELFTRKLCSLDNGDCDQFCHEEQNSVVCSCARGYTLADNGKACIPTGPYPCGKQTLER
UniProt P00742, 235-488 limits assumed: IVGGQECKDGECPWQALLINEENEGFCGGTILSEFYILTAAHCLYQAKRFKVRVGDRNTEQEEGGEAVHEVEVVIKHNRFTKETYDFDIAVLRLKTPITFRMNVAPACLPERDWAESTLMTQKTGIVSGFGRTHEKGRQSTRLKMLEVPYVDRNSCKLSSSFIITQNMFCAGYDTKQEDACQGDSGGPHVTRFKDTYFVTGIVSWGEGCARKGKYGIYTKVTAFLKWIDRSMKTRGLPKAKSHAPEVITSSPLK

Target: Coagulation factor X (Homo sapiens, UniProt P00742)
Assay: Inhibitory concentration to coagulation factor X

IC50: 1610 nM
SMILES: C/C(=C(\F)C(=O)Nc1ccc(-c2ccccc2S(N)(=O)=O)cc1)c1cccc(C(=N)NC2CC2)c1
